# Data taken from PubChem BioAssay AID602393 (Broad Institute, 2012).
# Only a part is listed here, and it is no random draw. Calls of active or inactive are those of the source. Cut-off read from the data, not from the text of the source: active = activation above about 40%; inconclusive = no clear call, values can overlap the other calls; inactive = below that.
# Test: raisers of Bmi1 knock-in reporter signal – mouse ES cells, Bmi1 luciferase knock-in, single point, esBAF inhibitor project, primary screen (AID 602393);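 note: 0% = median of the plate's neutral control wells and 100% = double that signal; a rise in the Bmi1 reporter signal indicates esBAF inhibition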
# Settings: 24 h, at 12.5 µM, active compounds read high, 100% = twice the neutral-well signal
row,SMILES,reporter increase
1,CCC(=O)N(c1ccccc1)C1(COC)CCN(CCc2cccs2)CC1,inactive: -0.969%
2,CCC(=O)N(c1ccccc1)C1(COC)CCN(CCn2nnn(CC)c2=O)CC1,inactive: 5.02%
